# Reference: patent US7745475B2, “Heteroaryl benzamide derivatives as GLK activators” (AstraZeneca AB, priority 2004, dated 2010)
# Sequences of proteins named here, by UniProt entry; tags and fusion partners are left off.
# UniProt P35557, whole entry: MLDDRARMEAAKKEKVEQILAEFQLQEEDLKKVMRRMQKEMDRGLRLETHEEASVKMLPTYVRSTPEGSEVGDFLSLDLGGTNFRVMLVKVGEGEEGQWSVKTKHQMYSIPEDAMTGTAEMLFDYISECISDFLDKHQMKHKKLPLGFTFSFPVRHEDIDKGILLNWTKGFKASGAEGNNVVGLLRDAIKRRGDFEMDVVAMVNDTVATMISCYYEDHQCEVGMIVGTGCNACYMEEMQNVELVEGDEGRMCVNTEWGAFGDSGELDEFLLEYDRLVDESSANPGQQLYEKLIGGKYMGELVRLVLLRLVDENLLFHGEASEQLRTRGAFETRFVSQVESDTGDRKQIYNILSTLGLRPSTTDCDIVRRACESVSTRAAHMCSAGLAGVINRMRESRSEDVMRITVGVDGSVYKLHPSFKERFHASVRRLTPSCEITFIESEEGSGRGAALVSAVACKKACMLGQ
# Target: recombinant human pancreatic GLK (Homo sapiens, UniProt P35557)
# Test: Enzymatic activity of recombinant human pancreatic GLK (G-6-P dehydrogenase coupled, OD 340 nm)
# Details: comparison in words
compound,measurement,value
"Cc1cnc(NC(=O)c2cc(OCCc3ccsc3)cc(OC(C)C)c2)s1 [Example II107, reference compound]","EC50 values, Example 3a compared with Example II107 in WO 03/015774",broadly similar
